# Laboratory results taken from ChEMBL document CHEMBL1145356, “Discovery of new C3aR ligands. Part 1: arginine derivatives” (Bioorg Med Chem Lett, 2007).
# Assays:
# [1] = biological target: T1, C3a anaphylatoxin chemotactic receptor (Homo sapiens, UniProt Q16581); experiment: Antagonist activity at C3aR; type: functional
# T1 sequence (Q16581 whole entry): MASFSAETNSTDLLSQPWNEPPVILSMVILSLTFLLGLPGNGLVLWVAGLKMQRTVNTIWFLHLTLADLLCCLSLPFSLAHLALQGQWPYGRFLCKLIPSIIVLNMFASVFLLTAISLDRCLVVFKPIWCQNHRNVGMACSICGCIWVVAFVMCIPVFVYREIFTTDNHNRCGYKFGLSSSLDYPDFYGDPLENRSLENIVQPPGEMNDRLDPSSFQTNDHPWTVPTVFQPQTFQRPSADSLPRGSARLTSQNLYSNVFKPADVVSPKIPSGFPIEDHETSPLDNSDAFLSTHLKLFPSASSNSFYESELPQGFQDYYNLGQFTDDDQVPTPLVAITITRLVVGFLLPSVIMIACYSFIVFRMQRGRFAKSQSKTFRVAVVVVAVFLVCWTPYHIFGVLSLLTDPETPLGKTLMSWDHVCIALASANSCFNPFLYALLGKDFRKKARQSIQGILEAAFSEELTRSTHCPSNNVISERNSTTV
# [2] = biological target: T1, C3a anaphylatoxin chemotactic receptor; experiment: Inhibition of human C3a receptor expressed on HMC1 cells by SPA assay; type: cell-based
smiles,measurement,setting,value
N=C(N)NCCC[C@H](NC(=O)c1ccc(C(c2ccccc2)c2ccccc2)o1)C(=O)O,EC50,[1],158 nM
same,IC50,[2],63.1 nM
